Reference: patent publication US20250215012A1, “IKZF2 DEGRADERS AND USES THEREOF” (REGENTS OF THE UNIVERSITY OF MICHIGAN, priority 2022, published 2025)

Sequences of proteins named here, by UniProt entry; tags and fusion partners are left off. A change or cut given only in a name is not applied to a line headed by its entry.
UniProt Q96SW2: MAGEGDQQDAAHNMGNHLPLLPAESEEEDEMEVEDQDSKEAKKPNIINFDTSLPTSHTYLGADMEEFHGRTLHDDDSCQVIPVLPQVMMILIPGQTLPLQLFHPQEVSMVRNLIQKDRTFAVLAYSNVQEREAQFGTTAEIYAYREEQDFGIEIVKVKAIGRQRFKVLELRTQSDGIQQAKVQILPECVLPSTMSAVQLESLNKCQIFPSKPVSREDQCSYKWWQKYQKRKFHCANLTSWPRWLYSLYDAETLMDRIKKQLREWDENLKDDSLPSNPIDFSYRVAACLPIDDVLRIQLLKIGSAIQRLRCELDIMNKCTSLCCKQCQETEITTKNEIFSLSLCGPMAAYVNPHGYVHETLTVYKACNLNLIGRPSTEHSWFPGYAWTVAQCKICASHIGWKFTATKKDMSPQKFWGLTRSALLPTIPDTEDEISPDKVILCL
UniProt Q9UKS7: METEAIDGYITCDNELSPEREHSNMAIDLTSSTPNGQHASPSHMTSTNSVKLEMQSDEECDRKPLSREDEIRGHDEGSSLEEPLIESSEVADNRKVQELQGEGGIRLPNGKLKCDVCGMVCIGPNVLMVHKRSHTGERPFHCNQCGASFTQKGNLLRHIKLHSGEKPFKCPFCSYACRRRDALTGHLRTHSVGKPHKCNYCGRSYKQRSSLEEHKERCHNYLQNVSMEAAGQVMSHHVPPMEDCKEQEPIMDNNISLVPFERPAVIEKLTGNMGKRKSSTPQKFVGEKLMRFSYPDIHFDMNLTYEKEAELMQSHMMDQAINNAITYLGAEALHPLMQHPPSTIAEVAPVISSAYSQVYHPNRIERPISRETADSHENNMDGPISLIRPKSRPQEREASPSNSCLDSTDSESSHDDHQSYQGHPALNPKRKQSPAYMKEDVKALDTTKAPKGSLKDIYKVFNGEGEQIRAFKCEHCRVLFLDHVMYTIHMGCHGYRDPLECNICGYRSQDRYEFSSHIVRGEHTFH

Experiments:
[1] = target: GST-tagged wild-type human CRBN protein (Homo sapiens (Human), UniProt Q96SW2); assay: Cereblon Binding Assay (Cisbio Cereblon Binding Kit, TR-FRET); conditions: about 3 hours at room temperature
Experimental: (§1) The binding to cereblon (CRBN) is determined using the Cereblon Binding Kit (Cisbio, #64BDCRBNPEG) following the manufacturer's instruction. Briefly, serially diluted compounds are incubated with GST-tagged wild-type human CRBN protein, XL665-labelled Thalidomide and Europium Cryptate labelled GST antibody.
as §1, with “(CRBN) was” for “(CRBN) is”, “compounds were” for “compounds are”, “GST antibody at room temperature for about 3 hours.” for “GST antibody.”

[2] = target: IKZF2 (Homo sapiens (Human), UniProt Q96SW2+Q9UKS7); assay: IKZF2 HiBiT Assay (Jurkat-IKZF2-HiBiT cell line); type: cell-based; conditions: Jurkat-IKZF2-HiBiT cells, 24 hours; read-out: HiBit assay degradation analysis DC50
Experimental: Degradation of IKZF2 protein is determined by IKZF2 HiBiT assay using the Jurkat-IKZF2-HiBiT (Promega) cell line. Briefly, cells are seeded in culture medium. Compounds are serially diluted in culture medium, and certain volume of the diluted compounds is added to the appropriate well of the plate. After the addition of compounds, the cells are incubated. At the end of treatment, Nano-Glo HiBiT Lytic Detection Reagent (Promega) is added to each well, and then the plates are incubated at room temperature for a certain time period. The luminescent signal is measured using a CALRIOstar plate reader (BMG Labtech). The readings are normalized to the DMSO-treated cells and the IC50 is calculated by nonlinear regression (four parameters sigmoid fitted with variable slope, least squares fit, and no constraint) analysis using the GraphPad Prism 8 software.
Degradation of IKZF2 protein was determined by IKZF2 HiBiT assay using the Jurkat-IKZF2-HiBiT (Promega) cell line. […] The luminescent signal was measured using a CALRIOstar plate reader (BMG Labtech). The readings were normalized to the DMSO-treated cells and the IC50 was calculated by nonlinear regression (four parameters sigmoid fitted with variable slope, least squares fit, and no constraint) analysis using the GraphPad Prism 8 software.

Structure (SMILES): O=C1CCC(N2Cc3c(ccc4c3OCCC43CCNCC3)C2=O)C(=O)N1 (centres unmarked) [Compound A2, 3-(7′-oxo-2′,3′,7′,9′-tetrahydro-8′H-spiro[piperidine-4,4′-pyrano[2,3-e]isoindol]-8′-yl)piperidine-2,6-dione]
- IC50 [1]: 100 to 1000 nM
- DC50 [2]: > 500 nM

Structure (SMILES): O=C1CCC(N2Cc3c(ccc4c3COC43CCNCC3)C2=O)C(=O)N1 (centres unmarked) [Compound A258, 3-(6-oxo-6,8-dihydrospiro[furo[3,4-e]isoindole-3,4′-piperidin]-7(1H)-yl)piperidine-2,6-dione]
- IC50 [1]: > 1000 nM

Structure (SMILES): CN1CC2(CCNCC2)c2ccc3c(c21)CN([C@H]1CCC(=O)NC1=O)C3=O [Compound A306, (S)-3-(1′-methyl-6′-oxo-1′,2′,6′,8′-tetrahydro-7′H-spiro[piperidine-4,3′-pyrrolo[3,4-g]indol]-7′-yl)piperidine-2,6-dione]
- IC50 [1]: > 1000 nM

Structure (SMILES): O=C1CC[C@H](N2Cc3c(ccc4c3NCC43CCNCC3)C2=O)C(=O)N1 [Compound A307]
- IC50 [1]: > 1000 nM
